Test results from patent publication US8792095B2, “Methods and apparatus for transport of airborne molecules using an active cyclical vapor/liquid exchange” (dated 2014).

Experiments:
[1] = Equilibrium vapor pressure / saturated vapor concentration; details: relative to DNT
[2] = Partitioning properties into water (Henry's constant, equilibrium aqueous concentration)
[3] = partitioning into water; cited from earlier work
[4] = gas-phase saturation value; cited from earlier work

Cc1ccccc1
vapor pressure compared with DNT [1]: six orders of magnitude higher | Partitioning (relative to Toluene) ([2]; into water, relative to toluene): 1 | Equilibrium aqueous concentration ([2]; water, equilibrium (saturation in liquid phase)): 50 mM | Henry's Const [3]: 5e−3 Atm m^3/mol | Equilibrium Vapor pressure 300k [4]: 3e8 ppb
